AlphaSeq binding of Ab-14 heavy chain variants to a spike HR2 peptide

Antigen: PDVDLGDISGINAS, a 14-residue peptide of the SARS-CoV-2 spike HR2 region.

Ab-14 is the parent antibody, in scFv form: VH, then a 15-residue (Gly4Ser)3 linker, then VL. The light chain is unchanged in all variants.
VH: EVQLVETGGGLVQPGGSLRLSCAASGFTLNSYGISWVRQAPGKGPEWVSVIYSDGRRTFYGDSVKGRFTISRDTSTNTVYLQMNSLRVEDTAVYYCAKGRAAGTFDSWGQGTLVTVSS
VL: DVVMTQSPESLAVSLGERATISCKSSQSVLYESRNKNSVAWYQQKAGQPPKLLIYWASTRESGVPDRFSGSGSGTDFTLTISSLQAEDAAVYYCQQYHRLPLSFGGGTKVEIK

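The variants were designed computationally from a first round of random CDR variants and then made and measured. Several design methods are mixed in this list. The assay is AlphaSeq: two haploid yeast populations carry antibody and antigen on their surface. Pairs that bind mate more often; barcode pairs of the diploids are counted by sequencing. Scores were corrected for input abundance and mapped to Kd with protein pairs of known affinity run in the same pool. Each pool was mated in six replicate cultures.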

Each variant is given by its three heavy chain CDRs, as the data file delimits them; those of the parent are GFTLNSYGIS, VIYSDGRRTFYGDSVK, GRAAGTFDS. Kd is apparent (estimated from mating counts) and averaged on the log scale over replicates with a signal. Smaller is tighter. "not detected" means that the variant was in the library but no mating with the target was seen in any replicate; the authors take this as a sign of poor binding, and no number exists. Order: sorted from the lowest average up, undetected variants last. Nonspecific signal, from three strains lacking the peptide, appeared in 1% of pairings of all heavy chain designs, centred on 120 nM (5% of these signals below 7.0 nM); values are not corrected for it. The parent sequence was in this pool as ten entries: three were never detected, three once, and four in most replicates, with averages from 2.2 nM to 240 nM. In the paper, a design with two or fewer of six values counts as a poor binder. A sequence measured in both rounds can read differently, since the two assays cover different ranges.

CDR-H1,CDR-H2,CDR-H3,Kd,seen in
GFDLNEYGIS,VIYADGRRTFYDDSVK,GELAGTFDL,280 pM,6/6
GFDLNEYGIS,VIYADGMRTAYTDNVK,GQVAGTFDV,280 pM,6/6
GFNLDEYGIS,VIYADGRRTFYADSVK,GQVAGTFDA,330 pM,6/6
GFDLNEYGIS,VIYADGVRTAYADNVK,GTNAGTFDV,340 pM,6/6
GFDLDEYGIS,VIYADGMRTAYADNVK,GEVAGTFDV,420 pM,6/6
GFDLDEYGIS,VIYADGKRTAYSDSVK,GENAGTFDT,460 pM,6/6
GFDLNEYGIS,VIYADGVRTYYADSVK,GNVAGTFDV,550 pM,6/6
GFDLNEYGIS,VIYADGMRTQYIDSVK,GNAAGTFDS,660 pM,6/6
GFTLNSYGIS,VIYSDGRRTFYSDSVK,GMTAGTFDS,760 pM,6/6
GFQLNEYGIS,VIYSDGRRTFYSDSVK,GSAAGTFDS,910 pM,6/6
GFNLNSYGIS,VIYADGRRTFYGDSVK,GQSAGTFDS,930 pM,6/6
GFDLEEYGIS,VIYADGMRTAYTDSVK,GENAGTFDV,930 pM,6/6
GFTLNEYGIS,VIYSDGRRTFYADSVK,GRRAGTFDS,990 pM,6/6
GFELNSYGIS,VIYSDGRRTFYDDSVK,GLLAGTFDS,1.0 nM,6/6
GFTLNSYGIS,VIYADGRRTFYGDAVK,GEAAGTFDK,1.2 nM,6/6
KFDLNSYGIS,VIYSDGKRTFYGDSVK,GREAGTFDS,1.7 nM,4/6
GFDLNEYGIS,VIYADGQRTFYSDSVK,GQSAGTFDA,2.4 nM,6/6
GFTLNEYGIS,VIYSDGRRTFYTDSVK,GRHAGTFVS,2.7 nM,6/6
GNTLNEYGIS,VIYSDGRRTFYGDSVK,GRTAGTFDS,3.7 nM,6/6
GFSLNSYGIS,VIYSDGRRTFYADHVK,GRTAGTFDS,4.4 nM,6/6
GFTLNDYGIS,VIYSDGRRTWYGDSVK,GQAAGTFDS,4.9 nM,6/6
GFDLNSYGIS,VIYSDGRRTFYGDSVK,GKAAGTFDQ,5.0 nM,5/6
GFTLNDYGIS,VIYSDGRRTFYIDSVK,GRVAGTFDS,5.8 nM,6/6
GFNLNSYGIS,VIYSDGRRTMYDDSVK,GRQAGTFDS,6.3 nM,3/6
GFELNSYGIS,VIYSDGRRTFYQDSVK,GRMAGTFDT,6.7 nM,5/6
GFTLNSYGIS,VIYSDGRRTFYSDSVK,GRAPGTFDS,8.5 nM,6/6
GFTLNEYGIS,VIYSDGRRTFYGDSVK,GRTAGTFTL,9.1 nM,2/6
GFTLESYGIS,VIYSDGQRTFYADDVK,GRAAGTFDK,10 nM,6/6
GFTLNSYGIS,VIYSDGRRTFYHDSVK,RDAAGTFDS,11 nM,1/6
GFTINSYGIS,VMYSDGRRTFYADSVK,GRAAGTFDS,11 nM,5/6
AFTLNSYGIS,VIYSDGRRTFYSDSVK,GEAAGTFDS,20 nM,6/6
GFTLNSYGIS,VIYSDGRRTFYADSVK,GRAPGTFPS,29 nM,6/6
KFSLNSYGIS,VIYSDGRRTFYCDSVK,GRTAGTFDS,51 nM,3/6
GFTLSSYGIS,VIYADGRRTFYGDSVK,GRAAGTFDS,65 nM,4/6
GFTLNSYGIS,VIYSDGRRTFYGDDVK,GSAALTFDS,92 nM,1/6
GFTLNSYGIS,VIFSDGRRTFYHDSVK,GRAGGTFDS,100 nM,3/6
GFTLNSYGIS,VIYSDGRRTWTGDSVK,GRAPGTFDS,140 nM,4/6
GFTLNKYGIS,VIYSDGRRTFYGDSVK,GRAAGTFDS,240 nM,2/6
GFNINEYGIS,VIYADGQRLSYDDNVK,GEITGTFNS,670 nM,3/6
GFTLNSYGIS,VIYSDGRRTFYGDSVK,GEAAGRFDS,2.8 µM,1/6
GFDLNSDGIS,VYYSDGRRTFYGDSVK,GRAAGWFNS,not detected,0/6
GFDLNEYGIS,VIYADGVRTEYQNQVK,GNIDGSFTF,not detected,0/6
GFDLQDYGIS,VIYADGVRYAFQNSVK,GQIAGTFNS,not detected,0/6
GFCLNSYGIS,VIYSDGRRTFYGDSVK,GEAAGRFDS,not detected,0/6
RFTLNSYGIS,VIYSDGFRTDYGDSVK,GPAAITFDS,not detected,0/6
GFKLNEYGIS,VIYADGQRKSYADSFK,GTHAGMVFE,not detected,0/6
GFTLNSYGIH,VIYSDGRRTGYQDSVK,GFAAGTFDS,not detected,0/6
GFDINEYGIS,VIYADGNRTMYQDQVK,GFNAGSFVI,not detected,0/6
GFTLNEYGIS,VIYSDGRRTFYQDSVK,GRAAVTFDK,not detected,0/6
GMDIEDYGIS,VIYADGKRKAYAQKFK,GHIGGTFGD,not detected,0/6
GFTLNDYGIS,VIYSDGKRTFYGDSVK,GRTAGTFWS,not detected,0/6
GFELNSYGIS,VIYSDGRRTFYGDSVK,GRIAGTFVL,not detected,0/6
QFTLNSYGIS,VIYSDGRRTMYGDDVK,GRAAGTFDL,not detected,0/6
KFNLNSYGIS,VIYSDGRRTFYGDSVK,GKAAGTFRS,not detected,0/6
GFTLNDYGIM,VIYQDGRRTQYIDKVK,GRAAGTFDS,not detected,0/6
GFTLNSRGIS,VIYSDGRRTFYGDSVK,GRAQGTFDH,not detected,0/6
GFTLNSYGIT,VIYSDGRRTFYGDSVK,GRAAGTFDS,not detected,0/6
GENLEEYGIS,VIYADGIREQYVDDVK,GEQGGYFVT,not detected,0/6

For reference, 9 entries of the list once more:

CDR-H1,CDR-H2,CDR-H3,Kd,seen in
GFELNSYGIS,VIYSDGRRTFYQDSVK,GRMAGTFDT,6.7 nM,5/6
GFTLNDYGIS,VIYSDGKRTFYGDSVK,GRTAGTFWS,not detected,0/6
GFNLNSYGIS,VIYADGRRTFYGDSVK,GQSAGTFDS,930 pM,6/6
GFTLNEYGIS,VIYSDGRRTFYTDSVK,GRHAGTFVS,2.7 nM,6/6
GMDIEDYGIS,VIYADGKRKAYAQKFK,GHIGGTFGD,not detected,0/6
GFTLNSRGIS,VIYSDGRRTFYGDSVK,GRAQGTFDH,not detected,0/6
GFDLNEYGIS,VIYADGVRTYYADSVK,GNVAGTFDV,550 pM,6/6
GFTLNSYGIS,VIYADGRRTFYGDAVK,GEAAGTFDK,1.2 nM,6/6
GFDLNEYGIS,VIYADGVRTAYADNVK,GTNAGTFDV,340 pM,6/6

Values reported by Li et al. 2023, doi:10.1038/s41467-023-39022-2 (FLAb copy).